# Experimental data reported in patent publication US11446342B2, “Composite probiotics and use thereof” (INFINITUS (CHINA) COMPANY LTD., priority 2019, dated 2022).
# Tested on: mice having high-fat diet induced metabolic syndrome
# Assay: Serum IFN-γ in high-fat diet-induced metabolic syndrome
# Format: in vivo, C57BL/6J mice
# Settings: intragastric daily, high-fat feed; probiotics total 1.0×10^9 CFU/mL
structure (smiles),measurement,value
"CN(CCOc1ccc(CC2SC(=O)NC2=O)cc1)c1ccccn1 (stereo not shown) [RH, rosiglitazone]",extent of decrease of serum IFN-γ content compared with the HF group,39.06 ng/L
